miR-122 sensor: miR-122 inhibition in Huh7 cells; 340,000 tested, 0.3% active; AID 602342; Huh7 miR-122 Renilla luciferase sensor, 48 h; neutral wells = 0, positive control = 100; activation (reporter increase), % at 12.5 µM;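 active = mean replicate activation score at least 90 and every replicate individually at or above 90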;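 also: higher luciferase means less miR-122 activity so hits act as miR-122 inhibitors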
Cneo AK release: causes C. neoformans cell lysis | lysis activity, % at 15 µM | 360,000 tested, 0.2% active | adenylate kinase release luminescence, 4 h; normalised: neutral wells 0, clomiphene wells 100;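 active = mean lysis activity across replicates of at least 80%, whatever share of replicates individually reach that level; inactive = mean lysis activity below 80%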
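read-out = cell lysis signal | test system = log-phase Cryptococcus neoformans yeast cells | input = cells at 5 × 10^6 per mL | medium = fresh YPD growth medium | signal = luminescent adenylate kinase detection reagent | timing = 4 h at 37 °C static, read 1 h later | dosing = single dose | controls = Clomiphene as positive lysis control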
UUG fidelity: modulators of yeast start codon fidelity, primary screen, whole organism, S. cerevisiae, single point, plate reader. S. cerevisiae UUG-firefly luciferase reporter, luminescence/redox ratio. activity score, % at 18.7 µM. hit rate 0.13% among 350,000;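 active = replicate mean at a twofold rise or more, about +100% in these data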;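 also: firefly luciferase made from a UUG start codon reports start codon fidelity; reporter light over untreated wells divided by growth signal over untreated wells; some hits fall short of that in this replicate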
N-glyco inh: blocks N-linked glycosylation in D54 reporter cells. D54 ERlucT glycosylation luciferase reporter, 24 h; percent of 100 nM tunicamycin response. reporter increase, % at 12.5 µM. 360,000 tested, 0.23% active;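 active = mean luciferase reporter signal, scaled so untreated is 0 and the glycosylation-blocking control 100, at or above a set limit in every replicate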;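 also: luciferase carries N-glycosylation sites so blocking glycosylation raises the light; 0% = median of neutral control wells and 100% = median of 100 nM tunicamycin wells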
Statin myotox sup: suppressors of simvastatin-induced myotoxicity in C2C12 myotubes; ATP luminescence, 48 h; scaled: DMSO 0, geranylgeraniol control 100; rescue of ATP level, % at 7.49 µM; 330,000 tested, 0.78% active; AID 602340;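 active = mean ATP rescue above about 67%, or every replicate alone reaching that limit, limit read from the data, passing the limit was not always enough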;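 also: myotubes were challenged with 10 µM simvastatin during compound exposure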
An asterisk follows results filed as active. In the library only some 1.2% were active in any assay of this set; here they are far more common.

Results for O=C(NCc1ccc(F)cc1)C1C2C=CC3(CN(Cc4cccnc4)C(=O)C13)O2 (stereo not drawn) ?
miR-122 sensor: 1; Cneo AK release: 116*; UUG fidelity: -13; N-glyco inh: 3

What do the screens show for `Cc1ccc(C)c(S(=O)(=O)Nc2ccc(C(=O)N3CCCCC3)cc2)c1`?
miR-122 sensor: 109*; Cneo AK release: 0; UUG fidelity: 6; N-glyco inh: 1; Statin myotox sup: 0

How did CC1CCCCN1C(=O)c1ccc(C(=O)N2CCCCC2C)cc1 (stereo not drawn) do in these assays?
miR-122 sensor: 0; Cneo AK release: 1; UUG fidelity: -2; N-glyco inh: 0; Statin myotox sup: -1

What do the screens show for `CC(=O)N1CCN(C(=O)c2ccc(NS(=O)(=O)c3cc(C)ccc3C)cc2)CC1`?
N-glyco inh: -1

How did Cc1ccc(C)c(S(=O)(=O)NCc2ccc(C(=O)N3CCCCC3C)cc2)c1 (stereo not drawn) do in these assays?
miR-122 sensor: -5; Cneo AK release: -3; UUG fidelity: -10; N-glyco inh: 3; Statin myotox sup: 114*

Results for COC(=O)c1c(NC(=O)c2ccccc2N(C)S(=O)(=O)c2ccccc2)sc2c1CCCC2 ?
miR-122 sensor: 61; N-glyco inh: 17

How did CCOC(=O)c1c(NC(=O)c2ccccc2N(C)S(=O)(=O)c2ccccc2)sc2c1CCCC2 do in these assays?
miR-122 sensor: 162*; Cneo AK release: 1; UUG fidelity: -10; N-glyco inh: 7

What do the screens show for `CC1=CC(C)[C@H](/C=N/n2c(=O)[nH]c3c([nH]c4ccc(Br)cc43)c2=O)C(C)C1` (stereo partly drawn)?
miR-122 sensor: -6; Cneo AK release: 0; UUG fidelity: -16; N-glyco inh: 37*; Statin myotox sup: -23

What do the screens show for `CC(=O)N1/C(=C/c2ccc(N(C)C)cc2)C(=O)c2ccccc21`?
N-glyco inh: 15

How did O=C(NC1CCSc2ccccc21)c1cccc(OC(F)F)c1 (stereo not drawn) do in these assays?
miR-122 sensor: 2; Cneo AK release: -3; UUG fidelity: -17; N-glyco inh: -2; Statin myotox sup: 67*

Arranged by SMILES length (highest first): three of the compounds above.
Results for COC(=O)c1c(NC(=O)c2ccccc2N(C)S(=O)(=O)c2ccccc2)sc2c1CCCC2 ?
miR-122 sensor: 61; N-glyco inh: 17

What do the screens show for `CC(=O)N1/C(=C/c2ccc(N(C)C)cc2)C(=O)c2ccccc21`?
N-glyco inh: 15

How did CC1CCCCN1C(=O)c1ccc(C(=O)N2CCCCC2C)cc1 (stereo not drawn) do in these assays?
miR-122 sensor: 0; Cneo AK release: 1; UUG fidelity: -2; N-glyco inh: 0; Statin myotox sup: -1

Later entries.
How did Cc1c(C(=O)Nc2ccc3oc(-c4cccnc4)nc3c2)oc2ccccc12 do in these assays?
miR-122 sensor: -11; Cneo AK release: 5; UUG fidelity: -17; N-glyco inh: 30*

Results for Cc1c(NC(=O)c2ccc([N+](=O)[O-])o2)cccc1-c1nc2ncccc2o1 ?
miR-122 sensor: 1; Cneo AK release: 0; UUG fidelity: -12; N-glyco inh: 16; Statin myotox sup: 107*

How did O=C(Nc1ccc2oc(-c3cccnc3)nc2c1)c1ccc(Br)o1 do in these assays?
miR-122 sensor: 1; Cneo AK release: -1; UUG fidelity: -11; N-glyco inh: -2

Results for O=C(Nc1ccc2oc(-c3cccnc3)nc2c1)c1ccc([N+](=O)[O-])o1 ?
N-glyco inh: 35*

What do the screens show for `O=c1c2c([nH]c3ccc(Br)cc13)CCCC2`?
miR-122 sensor: 4; Cneo AK release: 0; UUG fidelity: -7; N-glyco inh: 1; Statin myotox sup: 126*

How did CC(=O)Nc1ccc(/C=N/NS(=O)(=O)c2cc(C)ccc2C)cc1 do in these assays?
miR-122 sensor: 464*; Cneo AK release: 0; UUG fidelity: -12; N-glyco inh: 2

How did Cc1ccc(C)c(S(=O)(=O)N/N=C/c2ccc(F)cc2)c1 do in these assays?
N-glyco inh: -2

What do the screens show for `FC(F)(F)c1ccc(CN2C[C@@H]3C(c4ccc(C(F)(F)F)cc4)C4(c5cccnc5)CC3(C4)[C@H]2c2ccccc2)cc1` (stereo partly drawn)?
miR-122 sensor: -4; Cneo AK release: 1; UUG fidelity: -16; N-glyco inh: -14; Statin myotox sup: 119*

What do the screens show for `FC(F)(F)c1ccc(CN2C[C@@H]3C(c4ccccc4)C4(c5cccnc5)CC3(C4)[C@H]2c2ccccc2)cc1` (stereo partly drawn)?
miR-122 sensor: -4; Cneo AK release: -2; UUG fidelity: -10; N-glyco inh: -8; Statin myotox sup: -14

Results for N#Cc1ccc(C23CC4(C2)[C@H](CN(Cc2ccc(C(F)(F)F)cc2)[C@@H]4c2ccccc2)C3c2ccccc2)cc1 (stereo partly drawn) ?
miR-122 sensor: -11; Cneo AK release: 135*; UUG fidelity: -22; N-glyco inh: -10; Statin myotox sup: -1

High-throughput results deposited in PubChem BioAssay by Broad Institute.
